# Binding of CDR-mutated scFvs to a peptide of the spike HR2 region

Values reported by Li et al. 2023, doi:10.1038/s41467-023-39022-2 (FLAb copy).

The target is the same throughout: PDVDLGDISGINAS, from the HR2 region of SARS-CoV-2 spike.

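The parent was found by panning a naive human phage display library on the peptide. These sequences belong to a second round, designed from the earlier measurements on random variants of the parent. Their group label is 14L_GP_Gibbs (GP: Gaussian process model; Gibbs: Gibbs sampling; a sequence that several methods proposed may carry one label only). The scFvs were displayed on barcoded MATa yeast, the peptide on MATalpha yeast. Binding brings cells together so that they mate, and sequencing counts the barcode pairs among the diploids. Read counts were normalised to the haploid input and turned into Kd by a linear fit to BCL2-family pairs of known affinity, for each replicate. The assay was run in six technical replicates.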

The variants keep the heavy chain, the linker and the frameworks of Ab-14 (scFv order VH, a (GGGGS)3 linker, VL).
VH: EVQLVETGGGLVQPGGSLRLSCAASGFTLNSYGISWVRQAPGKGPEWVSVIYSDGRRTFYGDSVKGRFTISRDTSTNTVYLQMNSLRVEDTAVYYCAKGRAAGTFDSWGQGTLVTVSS
VL: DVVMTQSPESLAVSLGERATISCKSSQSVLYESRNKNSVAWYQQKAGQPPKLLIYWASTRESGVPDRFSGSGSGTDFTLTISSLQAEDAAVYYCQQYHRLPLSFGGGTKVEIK

Variants are written as CDR1, CDR2 and CDR3 of the light chain (limits as in the source). Parent: KSSQSVLYESRNKNSVA, WASTRES, QQYHRLPLS.
Scale: log10 of Kd in nM, estimated from mating counts; low values are strong binders.

CDR-L1,CDR-L2,CDR-L3,"replicates, log10 nM",control signals
KSSQSYDYEDRNSNSVA,NASQREH,QQYHRLPLS,0.42 / 0.31 / 0.05 / 0.34 / 0.19 / 0.58,3/18 (3.02)
KLMQEDEYQSRNPNSVA,QASERES,QQYHRLPLS,-0.60 / -0.73 / -0.82 / -0.91 / -0.80 / -0.58,0/18
KISQAVLYEDRNKNSVA,NANTRES,QQYHRLPLS,-0.04 / -0.67 / -0.12 / -0.45 / -0.34 / -0.05,0/18
KVYCGVDYEDRNKNSVA,HASQRES,QQYHRLPLS,0.40 / 0.33 / 0.16 / -0.08 / 0.08 / -0.18,1/18 (1.75)
KLSQSVLYGDRNKNSVA,HASTRES,QQYHRLPLY,-0.14 / -0.21 / -0.50 / -0.21 / -0.10 / -0.32,0/18
KLSQSVEYESRNKNSVA,NASTREY,QAYHRLPLA,0.13 / 0.28 / 0.09 / 0.84 / 0.65 / 0.47,0/18
KMSQSQLYESRNINSVA,NASTRLT,QQYHRLPLS,-0.11 / -0.12 / 0.05 / -0.06 / -0.24 / 0.34,0/18
KLSQSYEYESRNKNSVA,NASQREH,QQYHRLPLR,-0.06 / -0.12 / -0.42 / -0.20 / -0.25 / -0.34,0/18
KCEISVMQWDRNKNSVA,NASCRES,QQYHRLPLS,1.10 / 1.12 / 0.66 / 1.01 / 0.90 / 1.21,1/18 (2.69)
HLSQSVLQESRNKNSVA,EASQRER,QQYHRLPLS,-0.23 / -0.45 / -0.50 / -0.42 / -0.66 / -0.09,0/18
KLSQSDGGLQRNKNSVA,EASTREM,QQYHRLPLS,0.45 / -0.08 / 0.31 / 0.11 / 0.52 / 0.53,0/18
KVSQSHLYESRNGNSVA,NASTREH,QQYHRLPLS,0.22 / -0.07 / 0.04 / -0.21 / -0.13 / 0.13,0/18
KLSQQWMQQWRNKNSVA,NASTRES,QQYHRLPLS,0.21 / 0.00 / -0.05 / 0.09 / -0.02 / 0.22,0/18
KGMGSMLYEQRNKNSVA,NASQRES,QQYHRLPLS,1.17 / 0.97 / 0.76 / 1.00 / 1.31 / 0.94,0/18
KFSISWGMESRNKNSVA,NASTRMS,QQYHRLPLS,-0.03 / -0.22 / 0.01 / -0.03 / -0.29 / -0.11,1/18 (2.07)
KLSQSWLGQSWNKNSVA,NASQREH,QQYHRLPLS,0.81 / 1.47 / 0.40 / 1.59 / 1.26 / 1.28,1/18 (1.19)
KSMFSVPGEDRNKNSVA,EASTRCS,QQYHRLPLS,0.10 / -0.20 / -0.24 / -0.26 / -0.08 / -0.08,0/18
KSEWGVDDESRNDNQVA,NASTRLS,QQYHRLPLS,0.52 / 0.30 / 0.56 / 0.32 / 0.32 / 0.45,5/18 (3.37)
KVPGENLYESRNKNSVA,EASTRES,QDYHRLPLS,0.66 / 0.81 / 0.71 / 0.71 / 0.59 / 0.58,0/18
KLQQSRLMEERNSNSVA,SASLRES,QQYHRLPLS,0.09 / 0.17 / 0.34 / 0.06 / 0.26 / 0.35,2/18 (3.55)
KLSSSFLYEDRNKNSVA,QASQRES,QQYHRLPLS,-0.05 / -0.24 / -0.38 / -0.29 / -0.10 / -0.27,1/18 (3.35)
KISQSVLYESRNSNAVA,EASTRES,QDYHRLPLS,0.29 / 0.06 / 0.45 / 0.34 / -0.03 / 0.24,0/18
KVEMSQPYESRNKNSVA,HASVRES,QQYHRLPLS,-0.06 / -0.07 / 0.07 / 0.04 / 0.25 / 0.13,0/18
KFEQLHLYESRNKNSVA,QASTREM,QQYHRLPLS,0.17 / 0.34 / 0.22 / 0.38 / 0.43 / 0.76,1/18 (2.57)
KLSTSQLYWSRNFNAVA,QASTRET,QQYHRLPLS,0.77 / 0.52 / 0.74 / 0.81 / -0.02 / 0.92,0/18
KLEQSWEYESRNSNNVA,AASTRSD,QQYHRLPLS,-0.37 / -0.27 / -0.16 / -0.29 / -0.04 / -0.18,0/18
KAQQSNLYEDRNQNSVA,NASQRLS,QQYHRLPLS,-0.01 / 0.06 / -0.12 / -0.26 / -0.11 / -0.04,3/18 (3.00)
KFDQEWLLESRNKNSVA,HASQRCS,QQYHRLPLS,0.46 / 0.34 / 0.27 / 0.10 / 0.14 / 0.22,2/18 (3.08)
KVSGSQLYESRNSNSVA,NASNRMS,QQYHRLPLS,0.50 / 0.31 / 0.40 / 0.12 / 0.27 / 0.23,0/18
KLSYSVEYEDRNKNSVA,QASQRNS,QQYHRLPLS,0.88 / 0.59 / 0.62 / 0.46 / 0.55 / 0.74,1/18 (2.66)
KLSQSVGYESRMVNNVA,AASTRED,QQYHRLPLS,-0.23 / 0.00 / -0.48 / -0.22 / -0.69 / 0.12,0/18
KVSMSWLMESRNWNSVA,NASLRES,QDYHRLPLS,0.11 / 0.04 / 0.03 / 0.03 / -0.05 / 0.14,2/18 (2.21)
KLSQMYEYESRWKNSVA,HASTREL,QQYHRLPLS,0.84 / 0.30 / 0.41 / 0.62 / 0.33 / 0.49,3/18 (2.87)
KLRQSCLYESRNKNSVA,MASQRCS,QQYHRLPLS,0.56 / 0.23 / 0.53 / 0.91 / 0.45 / 0.94,2/18 (2.10)
KLSCGVDYWSRNKNSVA,GGSTRES,QQYHRLPLS,-0.35 / -0.42 / -0.19 / -0.60 / -0.21 / -0.10,0/18
KFSQSVGYESRNKNSVA,NAQTRLE,QQYHRLPLS,0.87 / 0.47 / 0.62 / 0.50 / 0.31 / 0.83,0/18
HSSPSQYYEDREFNSVA,NASQRES,QQYHRLPLS,0.33 / 0.20 / 0.12 / 0.04 / -0.01 / 0.44,1/18 (3.06)
KVSQSYLGESRNMNSVA,NASTRED,QQYHRLPLS,0.20 / 0.46 / 0.27 / 0.24 / 0.29 / 0.37,2/18 (3.42)

Picked from the list: the 6 lowest averages where every replicate gave a value.

CDR-L1,CDR-L2,CDR-L3,"replicates, log10 nM",control signals
KLMQEDEYQSRNPNSVA,QASERES,QQYHRLPLS,-0.60 / -0.73 / -0.82 / -0.91 / -0.80 / -0.58,0/18
HLSQSVLQESRNKNSVA,EASQRER,QQYHRLPLS,-0.23 / -0.45 / -0.50 / -0.42 / -0.66 / -0.09,0/18
KLSCGVDYWSRNKNSVA,GGSTRES,QQYHRLPLS,-0.35 / -0.42 / -0.19 / -0.60 / -0.21 / -0.10,0/18
KISQAVLYEDRNKNSVA,NANTRES,QQYHRLPLS,-0.04 / -0.67 / -0.12 / -0.45 / -0.34 / -0.05,0/18
KLSQSVGYESRMVNNVA,AASTRED,QQYHRLPLS,-0.23 / 0.00 / -0.48 / -0.22 / -0.69 / 0.12,0/18
KLSQSVLYGDRNKNSVA,HASTRES,QQYHRLPLY,-0.14 / -0.21 / -0.50 / -0.21 / -0.10 / -0.32,0/18

The authors averaged sequences with at least three values out of six and counted those with two or fewer as poor binders.
Empty control strains, which show no peptide, gave a signal in 4% of pairings with all light chain designs; the median was 2.64 and 95% of these signals were weaker than 1.59. No background was subtracted. The control count says in how many pairings with the empty strains this scFv gave a signal, with their mean in brackets.
Of ten entries with the parent sequence, four were seen in most replicates (averages 0.34 to 2.37), three in one and three in none, so single entries are noisy.
The range of this assay differs from that of the first round, and the authors advise against merging the two.